Reference: ChEMBL document CHEMBL5344474, “Molecular editing of NSC-666719 enabling discovery of benzodithiazinedioxide-guanidines as anticancer agents” (RSC Med Chem, 2024)

How the values were obtained:
Test in all cases: cells
Details in all cases: Homo sapiens, MCF7, 48 h, read-out: Activity
MCF7 [1] = system: MCF7
MCF7 [2] = system: MCF7; remark: listed apart in the source
MCF7 [3] = system: MCF7; remark: listed apart in the source

For Cc1cc2c(cc1Cl)SC(/N=C(/N)Nc1cccc3ccccc13)=NS2(=O)=O, which viability at 2 µM (MCF7 [1]) is on record?
Its viability at 2 µM is 17.2%.

And the viability at 0.5 µM (MCF7 [2])?
The viability at 0.5 µM was 67.4%.

What about the viability at 1 µM (MCF7 [3]) of the same compound?
The viability at 1 µM was 27.2%.
